Values of other authors as cited in US12384852B2, “Genetically modified NK-92 cells having a safety switch” (ImmunityBio, Inc., priority 2015, dated 2025).

Tested on: NK-92 cells
Settings: NK-92 cells in culture; cited from earlier work

rIL-2: recombinant interleukin 2
dose sufficient to maintain proliferation: 1 IU/mL
